Measurements taken from US20260174823A1, “CGRP/RAMP1 BLOCKADE TO TREAT ENDOMETRIOSIS-ASSOCIATED PAIN AND REDUCE ENDOMETRIOSIS LESIONS” (The Children's Medical Center Corporation, priority 2022, published 2026).
“Also recorded” adds a separate entry of the source.

Legend:
[1] = system: mouse endometrial epithelial cells (mEECs); experiment: mEEC proliferation assay in transwell co-culture with peritoneal macrophages (CyQuant); format: cell-based; conditions: CGRP 100 nM for 24 hours vs vehicle
Experimental: (§1) Peritoneal cells were collected in FACS buffer from the abdominal cavity of naïve mice. Peritoneal cavity immune cells were seeded in petri dishes in RPMI media and incubated at 37° C. in 5% CO2 for 60 minutes. Non-adherent cells were discarded, and adherent cells (macrophages) were scraped, centrifuged, and counted.
For experiments involving mouse epithelial endometrial cell (mEEC) proliferation, macrophages were plated (100,000 cells per well) onto tissue culture insert and left overnight with 20,000 mEEC plated on the bottom of the well. […]
(§2) Macrophages represent the majority of cells in the peritoneal cavity and these cells are directly implicated in the etiology of endometriosis. […] Cell growth was assessed using the CyQuant™ kit and quantification performed in a spectrophotometer (n=8 well per group). […]
PerC wash and lesions were collected 56 dpi from sham or endometriosis mice for determination of pCREB activation or RAMP1 expression by immunofluorescence (FIG. 9A). […] Lesion size was determined in the remaining lesions by measuring height and weight. […] Cells were washed 3 times with DPBS to remove non-engulfed 12z-eGFP and then and fluorescence intensity determined. […] Results shown are expressed as mean±SEM, n=5−12 (one-way ANOVA followed by Tukey's post hoc or Student's t-test, ****P<0.0001, p<0.001, **p<0.02, *p<0.05).

peritoneal macrophages = experiment: efferocytosis assay: peritoneal macrophages with apoptotic 12z-eGFP cells; format: cell-based, mouse; conditions: CGRP 100 nM for 24 hours vs vehicle-treated group
Experimental: as §1
For the efferocytosis assay, macrophages (200,000 cells per well) were plated overnight onto a 96-well plate. Stimulus with CGRP (100 nM) or vehicle was performed for 24 hours. After that, etoposide-induced apoptotic 12z-eGFP were added (600,000 cells per well) to the macrophage culture and incubated for 1 hour. Cells were washed 3 times with DPBS to remove non-engulfed 12z-eGFP and then and fluorescence intensity determined. […]
as §2
PerC wash and lesions were collected 56 dpi from sham or endometriosis mice for determination of pCREB activation or RAMP1 expression by immunofluorescence (FIG. 9A). […] Lesion size was determined in the remaining lesions by measuring height and weight. […] Cells were washed 3 times with DPBS to remove non-engulfed 12z-eGFP and then and fluorescence intensity determined. […]

endometriosis lesions = conditions: high-doses of CGRP, previously shown; cited from earlier work

In the case of “calcitonin gene-related peptide (ACDTATCVTHRLAGLLSRSGGVVKNNFVPTNVGSKAF; Calcitonin gene-related peptide 1; UniProt P06881 83-119, looked up) [CGRP, neuropeptide released by peptidergic nociceptors, signals through RAMP1; used as stimulus (100 nM)]”, the “growth of mEEC in co-culture with CGRP stimulated macrophages” value [1] is given as “promote the growth”, the “efferocytosis activity of macrophages (fluorescence intensity)” value (peritoneal macrophages) is given as “reduced efferocytosis activity; also recorded: reduces efferocytosis” and the “growth of endometriosis lesions” value (endometriosis lesions) is given as “increase the growth”.
